The experiment deals with Gamma-butyrobetaine dioxygenase (Homo sapiens, UniProt O75936). Description: Inhibition of human recombinant BBOX expressed in Saccharomyces cerevisiae AH22 assessed as formation of carnitine from gamma-butyrobetaine preincubated for 15 mins measured after 30 mins by UPLC-MS/MS analysis. Conditions: read-out: IC50(app).

Amino acid sequences for entries named in this document (tags omitted). A change or cut given only in a name is not applied to a line headed by its entry.
UniProt O75936: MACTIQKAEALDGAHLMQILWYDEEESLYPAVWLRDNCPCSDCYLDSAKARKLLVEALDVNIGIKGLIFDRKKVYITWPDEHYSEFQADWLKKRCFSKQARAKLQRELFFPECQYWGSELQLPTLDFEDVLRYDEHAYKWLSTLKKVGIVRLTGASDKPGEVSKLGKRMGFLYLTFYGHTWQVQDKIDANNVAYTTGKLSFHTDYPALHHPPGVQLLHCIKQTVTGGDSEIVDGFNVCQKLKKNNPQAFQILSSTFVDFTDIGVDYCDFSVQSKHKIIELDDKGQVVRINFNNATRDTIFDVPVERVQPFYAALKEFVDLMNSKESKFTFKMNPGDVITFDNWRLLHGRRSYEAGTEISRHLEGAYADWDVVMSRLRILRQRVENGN

Take `C[N+](C)(CCBr)CCCC(=O)O`: the concentration for half-maximal inhibition (IC50) came out at 1.2 µM.

As a reminder, the IC50 is the point on the concentration scale where inhibition reaches its midpoint.

For the origin of these results see ChEMBL document CHEMBL3232920, “Targeting carnitine biosynthesis: discovery of new inhibitors against γ-butyrobetaine hydroxylase” (J Med Chem, 2014).
